Measured values: patent US11142543B2 (priority 2016, dated 2021)

Tested on: C57 mice susceptible to social defeat by CD-1 aggressive mice
Experiment: Social defeated stress (SDS) model, Example 42
Format: in vivo

`C[C@H]1CC[C@@]2(OC1)O[C@H]1C[C@H]3[C@@H]4CC[C@@H]5C[C@H](NC(=O)NC6CCCCC6)CC[C@]5(C)[C@H]4CC[C@]3(C)[C@H]1[C@@H]2C` [compound C-11] was tested, and the mouse social time (FIG. 5A, C-11 10 mg/kg gavage every day, fluoxetine 10 mg/kg intraperitoneally every day, 3 weeks) was “significantly increased the social time of the mice during the second week of administration” and the “antidepressant activity compared with fluoxetine” value (social defeated stress model) was “superior antidepressant activity to fluoxetine”.
